The target of this experiment is 5-HT1A receptor (Homo sapiens, UniProt P08908). In words: GloSensor cAMP assay, 5-HT1A Gi signaling in HEK 293T cells. In kind it is cell-based.

Sequences of proteins named here, by UniProt entry; tags and fusion partners are left off.
UniProt P08908, whole entry: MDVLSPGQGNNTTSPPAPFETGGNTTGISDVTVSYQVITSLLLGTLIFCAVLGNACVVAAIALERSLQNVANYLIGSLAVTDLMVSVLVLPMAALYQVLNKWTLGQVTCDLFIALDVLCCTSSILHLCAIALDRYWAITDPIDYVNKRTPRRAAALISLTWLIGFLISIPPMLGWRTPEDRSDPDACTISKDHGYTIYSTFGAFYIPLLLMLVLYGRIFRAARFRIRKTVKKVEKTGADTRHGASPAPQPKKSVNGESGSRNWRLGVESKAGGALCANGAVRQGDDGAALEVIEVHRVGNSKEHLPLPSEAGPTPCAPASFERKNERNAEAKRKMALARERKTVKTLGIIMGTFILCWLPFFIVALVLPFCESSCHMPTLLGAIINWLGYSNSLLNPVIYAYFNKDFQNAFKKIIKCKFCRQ

The source of these data is paper PMC12722636, “Structural Pharmacology of Bufotenine Derivatives in Activating the 5-HT1A Receptor for Therapeutic Potential in Depression and Anxiety” (Research, 2025).

SMILES strings stand for the structures.

As to `COc1ccc2[nH]cc(CCN(C)C)c2c1` [Compound 5-MeO-DMT, 5-methoxy-N,N-dimethyltryptamine], the EC50 came to 500 nM.
